Values quoted from earlier work, collected in patent US20060110594A1, “Polymer-coated substrates for binding biomolecules and methods of making and using thereof” (priority 2004, published 2006).

Details: isoelectric point, listed property; cited from earlier work

HSA: human serum albumin, a protein involved in the transport of drugs in the blood
pI: 5.5
